According to ChEMBL document CHEMBL2150997, “Profiling of a prescription drug library for potential renal drug-drug interactions mediated by the organic cation transporter 2” (J Med Chem, 2011):

Biological target: T1, Multidrug and toxin extrusion protein 1 (Homo sapiens, UniProt Q96FL8)
T1 sequence (Q96FL8 whole entry): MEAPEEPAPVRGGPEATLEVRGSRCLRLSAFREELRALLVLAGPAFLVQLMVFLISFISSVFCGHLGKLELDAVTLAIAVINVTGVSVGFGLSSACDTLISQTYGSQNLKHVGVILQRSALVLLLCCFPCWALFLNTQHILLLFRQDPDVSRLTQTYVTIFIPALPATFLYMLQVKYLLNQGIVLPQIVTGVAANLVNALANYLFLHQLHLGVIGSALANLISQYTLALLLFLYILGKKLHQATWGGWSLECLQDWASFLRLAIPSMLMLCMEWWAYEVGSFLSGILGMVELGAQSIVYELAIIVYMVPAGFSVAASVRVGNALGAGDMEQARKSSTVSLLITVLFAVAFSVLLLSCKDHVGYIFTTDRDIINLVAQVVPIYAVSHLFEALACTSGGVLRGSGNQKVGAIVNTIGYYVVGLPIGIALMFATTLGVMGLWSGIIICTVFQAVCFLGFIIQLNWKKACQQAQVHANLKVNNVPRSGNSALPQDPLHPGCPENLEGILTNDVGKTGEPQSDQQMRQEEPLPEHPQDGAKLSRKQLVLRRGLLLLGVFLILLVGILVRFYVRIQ

Row | Structure (SMILES) | IC50
1 | CN/C(=N/CCSCc1nc[nH]c1C)NC#N [CIMETIDINE] | 5700 nM
2 | Cc1nccn1CC1CCc2c(c3ccccc3n2C)C1=O (stereo not drawn) [ONDANSETRON] | 150 nM
3 | Nc1c2c(nc3ccccc13)CCCC2 [TACRINE] | 1100 nM
